Molecular target: recombinant human Estrogen Receptor alpha ligand binding domain (ER alpha-LBD (GST)) (Homo sapiens (Human), UniProt P03372)
Test: ERα binding assay (LanthaScreen TR-FRET competition)
Conditions: read-out: ER binding IC50 value; competitive displacement of Fluormone ES2 tracer, 4 hours room temperature

By UniProt entry, the sequences of proteins in these tests, tags left out. Residues count along the entry.
UniProt P03372, 307-554: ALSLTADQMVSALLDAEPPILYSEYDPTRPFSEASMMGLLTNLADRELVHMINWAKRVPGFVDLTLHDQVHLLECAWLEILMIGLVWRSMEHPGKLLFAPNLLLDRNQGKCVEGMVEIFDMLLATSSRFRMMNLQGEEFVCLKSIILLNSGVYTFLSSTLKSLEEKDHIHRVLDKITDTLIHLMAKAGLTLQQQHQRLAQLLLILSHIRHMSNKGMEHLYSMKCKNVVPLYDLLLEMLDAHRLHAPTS

Compound	IC50 [nM]
COc1cc(OCCN2CC(OC)C2)ccc1[C@@H]1c2ccc3[nH]ncc3c2C[C@@H](C)N1CC(C)(C)F [Example 24, (6S,8R)-7-(2-fluoro-2-methylpropyl)-6-(2-methoxy-4-(2-(3-methoxyazetidin-1-yl)ethoxy)phenyl)-8-methyl-6,7,8,9-tetrahydro-3H-pyrazolo[4,3-f]isoquinoline]	3.7
C[C@@H]1Cc2c(ccc3[nH]ncc23)[C@@H](c2c(F)cc(OCCN3CC(CF)C3)cc2F)N1CC(C)(C)F [Example 1, (6S,8R)-6-(2,6-difluoro-4-(2-(3-(fluoromethyl)azetidin-1-yl)ethoxy)phenyl)-7-(2-fluoro-2-methylpropyl)-8-methyl-6,7,8,9-tetrahydro-3H-pyrazolo[4,3-f]isoquinoline]	1.2
COCC(F)(F)CN1[C@H](c2ccc(OCCN3CC(CF)C3)cc2OC)c2ccc3[nH]ncc3c2C[C@H]1C [Example 15, (6S,8R)-7-(2,2-difluoro-3-methoxypropyl)-6-(4-(2-(3-(fluoromethyl)azetidin-1-yl)ethoxy)-2-methoxyphenyl)-8-methyl-6,7,8,9-tetrahydro-3H-pyrazolo[4,3-f]isoquinoline]	5.2
COc1cc(OCCN2CC(CF)C2)ccc1[C@@H]1c2ccc3[nH]ncc3c2C[C@@H](C)N1CC(C)C [Example 9, (6S,8R)-6-(4-(2-(3-(fluoromethyl)azetidin-1-yl)ethoxy)-2-methoxyphenyl)-7-isobutyl-8-methyl-6,7,8,9-tetrahydro-3H-pyrazolo[4,3-f]isoquinoline]	5.8
C[C@@H]1Cc2c(ccc3[nH]ncc23)[C@@H](c2ccc(OCCN3CC(CF)C3)cc2)N1CC1(F)CC1 [Example 29, (6R,8R)-7-((1-fluorocyclopropyl)methyl)-6-(4-(2-(3-(fluoromethyl)azetidin-1-yl)ethoxy)phenyl)-8-methyl-6,7,8,9-tetrahydro-3H-pyrazolo[4,3-f]isoquinoline]	9.2
COCC(C)(F)CN1[C@H](c2ccc(OCCN3CC(CF)C3)cc2OC)c2ccc3[nH]ncc3c2C[C@H]1C (single isomer, unassigned) [Example 16]	4.1
C[C@@H]1Cc2c(ccc3[nH]ncc23)[C@@](C)(c2ccc(OCCN3CC(CF)C3)cc2)N1CC1(F)COC1 [Example 32, (6R,8R)-6-(4-(2-(3-(fluoromethyl)azetidin-1-yl)ethoxy)phenyl)-7-((3-fluorooxetan-3-yl)methyl)-6,8-dimethyl-6,7,8,9-tetrahydro-3H-pyrazolo[4,3-f]isoquinoline]	0.67
C[C@@H]1Cc2c(ccc3[nH]ncc23)[C@@H](c2c(F)cc(OCCN3CC(CF)C3)cc2F)N1CC(F)CF (single isomer, unassigned) [Example 35]	2.7
COc1cc(OCCN2CC(CF)C2)ccc1[C@@H]1c2ccc3[nH]ncc3c2C[C@@H](C)N1CC(C)(C)F [Example 5, (6S,8R)-7-(2-fluoro-2-methylpropyl)-6-(4-(2-(3-(fluoromethyl)azetidin-1-yl)ethoxy)-2-methoxyphenyl)-8-methyl-6,7,8,9-tetrahydro-3H-pyrazolo[4,3-f]isoquinoline]	3.3
C[C@@H]1Cc2c(ccc3[nH]ncc23)[C@@H](c2ccc(OCCN3CC(CF)C3)cn2)N1CC(F)(F)F [Example 49, (6S,8R)-6-(5-(2-(3-(fluoromethyl)azetidin-1-yl)ethoxy)pyridin-2-yl)-8-methyl-7-(2,2,2-trifluoroethyl)-6,7,8,9-tetrahydro-3H-pyrazolo[4,3-f]isoquinoline]	2.2
COc1cc(OCCN2CC(CF)C2)ncc1[C@@H]1c2ccc3[nH]ncc3c2C[C@@H](C)N1CC1(F)CC1 [Example 42, (6S,8R)-7-((1-fluorocyclopropyl)methyl)-6-(6-(2-(3-(fluoromethyl)azetidin-1-yl)ethoxy)-4-methoxypyridin-3-yl)-8-methyl-6,7,8,9-tetrahydro-3H-pyrazolo[4,3-f]isoquinoline]	6.6
COc1cc(OCCN2CC(CF)C2)ccc1[C@@H]1c2ccc3[nH]ncc3c2C[C@@H](C)N1CC(C)(F)CF (single isomer, unassigned) [Example 20]	1.1
COCC(F)(F)CN1[C@H](c2ccc(OCCN3CC(CF)C3)cn2)c2ccc3[nH]ncc3c2C[C@H]1C [Example 10, (6S,8R)-7-(2,2-difluoro-3-methoxypropyl)-6-(5-(2-(3-(fluoromethyl)azetidin-1-yl)ethoxy)pyridin-2-yl)-8-methyl-6,7,8,9-tetrahydro-3H-pyrazolo[4,3-f]isoquinoline]	7.9
CC(C)CN1[C@H](c2c(F)cc(OCCN3CC(CF)C3)cc2F)c2ccc3[nH]ncc3c2C[C@H]1C [Example 33, (6S,8R)-6-(2,6-difluoro-4-(2-(3-(fluoromethyl)azetidin-1-yl)ethoxy)phenyl)-7-isobutyl-8-methyl-6,7,8,9-tetrahydro-3H-pyrazolo[4,3-f]isoquinoline]	0.9
C[C@@H]1Cc2c(ccc3[nH]ncc23)[C@@H](c2c(F)cc(NCCN3CC(CF)C3)cc2F)N1CC(C)(C)F [Example 47, 3,5-difluoro-4-((6S,8R)-7-(2-fluoro-2-methylpropyl)-8-methyl-6,7,8,9-tetrahydro-3H-pyrazolo[4,3-f]isoquinolin-6-yl)-N-(2-(3-(fluoromethyl)azetidin-1-yl)ethyl)aniline]	1.1
C[C@@H]1Cc2c(ccc3[nH]ncc23)[C@@H](c2ccc(OCCN3CC(CF)C3)cc2C#N)N1CC1(F)CC1 [Example 39, 2-((6S,8R)-7-((1-fluorocyclopropyl)methyl)-8-methyl-6,7,8,9-tetrahydro-3H-pyrazolo[4,3-f]isoquinolin-6-yl)-5-(2-(3-(fluoromethyl)azetidin-1-yl)ethoxy)benzonitrile]	2.8
COc1cc(OCCN2CC(C)C2)ccc1[C@@H]1c2ccc3[nH]ncc3c2C[C@@H](C)N1CC(C)(C)F [Example 23, (6S,8R)-7-(2-fluoro-2-methylpropyl)-6-(2-methoxy-4-(2-(3-methylazetidin-1-yl)ethoxy)phenyl)-8-methyl-6,7,8,9-tetrahydro-3H-pyrazolo[4,3-f]isoquinoline]	2.8
C[C@@H]1Cc2c(ccc3[nH]ncc23)[C@@](C)(c2c(F)cc(OCCN3CC(CF)C3)cc2F)N1CC(C)(C)F [Example 2, (6S,8R)-6-(2,6-difluoro-4-(2-(3-(fluoromethyl)azetidin-1-yl)ethoxy)phenyl)-7-(2-fluoro-2-methylpropyl)-6,8-dimethyl-6,7,8,9-tetrahydro-3H-pyrazolo[4,3-f]isoquinoline]	1.5
CC(C)CN1[C@H](c2c(F)cc(OCCN3CC(CF)C3)cc2F)c2ccc3[nH]nc(F)c3c2C[C@H]1C [Example 44, (6S,8R)-6-(2,6-difluoro-4-(2-(3-(fluoromethyl)azetidin-1-yl)ethoxy)phenyl)-1-fluoro-7-isobutyl-8-methyl-6,7,8,9-tetrahydro-3H-pyrazolo[4,3-f]isoquinoline]	2.5
COc1cc(OCCN2CC(CF)C2)ccc1[C@@H]1c2ccc3[nH]ncc3c2C[C@@H](C)N1CC1(F)COC1 [Example 13, (6S,8R)-6-(4-(2-(3-(fluoromethyl)azetidin-1-yl)ethoxy)-2-methoxyphenyl)-7-((3-fluorooxetan-3-yl)methyl)-8-methyl-6,7,8,9-tetrahydro-3H-pyrazolo[4,3-f]isoquinoline]	3.7
COc1cc(OCCN2CC(CF)C2)ccc1[C@@H]1c2ccc3[nH]ncc3c2C[C@@H](C)N1CC(C)(F)F [Example 11, (6S,8R)-7-(2,2-difluoropropyl)-6-(4-(2-(3-(fluoromethyl)azetidin-1-yl)ethoxy)-2-methoxyphenyl)-8-methyl-6,7,8,9-tetrahydro-3H-pyrazolo[4,3-f]isoquinoline]	1.3
C[C@@H]1Cc2c(ccc3[nH]ncc23)[C@@H](c2c(F)cc(OCCN3CC(C(F)F)C3)cc2F)N1CC(C)(C)F [Example 38, (6S,8R)-6-(4-(2-(3-(difluoromethyl)azetidin-1-yl)ethoxy)-2,6-difluorophenyl)-7-(2-fluoro-2-methylpropyl)-8-methyl-6,7,8,9-tetrahydro-3H-pyrazolo[4,3-f]isoquinoline]	0.58
C[C@@H]1Cc2c(ccc3[nH]ncc23)[C@@H](c2ccc(OCCN3CC(CF)C3)cn2)N1CC1(F)CC1 [Example 8, (6S,8R)-7-((1-fluorocyclopropyl)methyl)-6-(5-(2-(3-(fluoromethyl)azetidin-1-yl)ethoxy)pyridin-2-yl)-8-methyl-6,7,8,9-tetrahydro-3H-pyrazolo[4,3-f]isoquinoline]	1.3
COc1cc(OCCN2CC(CF)C2)ccc1[C@@H]1c2ccc3[nH]ncc3c2C[C@@H](C)N1CC(F)(F)CO [Example 14, 2,2-difluoro-3-((6S,8R)-6-(4-(2-(3-(fluoromethyl)azetidin-1-yl)ethoxy)-2-methoxyphenyl)-8-methyl-3,6,8,9-tetrahydro-7H-pyrazolo[4,3-f]isoquinolin-7-yl)propan-1-ol]	3.5
COc1nc(OCCN2CC(CF)C2)ccc1[C@@H]1c2ccc3[nH]ncc3c2C[C@@H](C)N1CC1(F)CC1 [Example 46, (6S,8R)-7-((1-fluorocyclopropyl)methyl)-6-(6-(2-(3-(fluoromethyl)azetidin-1-yl)ethoxy)-2-methoxypyridin-3-yl)-8-methyl-6,7,8,9-tetrahydro-3H-pyrazolo[4,3-f]isoquinoline]	4.9
CC(C)(F)CN1[C@H](c2c(F)cc(OCCN3CC(CF)C3)cc2F)c2ccc3[nH]ncc3c2C[C@H]1C(F)F [Example 3, (6S,8S)-6-(2,6-difluoro-4-(2-(3-(fluoromethyl)azetidin-1-yl)ethoxy)phenyl)-8-(difluoromethyl)-7-(2-fluoro-2-methylpropyl)-6,7,8,9-tetrahydro-3H-pyrazolo[4,3-f]isoquinoline]	0.52
COc1cc(OCCN2CC(CF)C2)ccc1[C@@H]1c2ccc3[nH]ncc3c2C[C@@H](C)N1CC(F)(F)F [Example 12, (6S,8R)-6-(4-(2-(3-(fluoromethyl)azetidin-1-yl)ethoxy)-2-methoxyphenyl)-8-methyl-7-(2,2,2-trifluoroethyl)-6,7,8,9-tetrahydro-3H-pyrazolo[4,3-f]isoquinoline]	2.9
